In paper PMC11876601 (Molecular Systems Biology, 2025):

Legend:
Assay in all cases: PDO viability assay (CellTiter-Glo, 72 h)
Assay type in all cases: cell-based
Conditions in all cases: Homo sapiens, read-out: EC50 mean
PDO B678 = test system: PDO B678
Experimental: (§1) Primary patient-derived PDAC organoid (PDO) experiments were performed in the laboratories of Prof. Maximilian Reichert (University Hospital of the TU Munich, Germany, PDO set 1: B250, B535, B678) and Prof. Jens T. Siveke (University Hospital Essen, Germany; PDO set 2: UME008, UME012, UME051, UME053, UME060, UME061). PDOs were generated from surgical resection, EUS-guided fine needle biopsy (EUS-FNB), or ascites (Appendix Table S2). Surgical specimens were first minced with a sterile scalpel and subsequently washed with Anti-Anti solution and washing medium (PDO set 1), or vice versa (PDO set 2; Appendix Table S3). Biopsy samples were directly washed with an Anti-Anti solution and washing medium. Samples were digested using 1 ml of digestion medium at 37 °C while shaking, and the enzymatic reaction was stopped by adding 15 ml of washing medium (Appendix Table S3). If samples of PDO set 1 were blood-stained, tissue pellets were first incubated with ACK lysing buffer/red blood cells lysis buffer (Thermo Fisher Scientific) for 5 min and then digested using TrypLE (Thermo Fisher Scientific). The reversed procedure was applied for blood-stained samples of PDO set 2. For PDO generation from ascites, the material was first spun down at 500 × g for 5 min. Then, washing medium was added and the suspension was centrifuged at 300 × g for 5 min. […]
(§2) For viability assays in PDOs, confluent organoids were removed from medium, and Matrigel was dissolved by adding 200 μl (PDO set 1) or 2 ml (PDO set 2) of Cell Recovery Solution (Corning), and additionally 500 μl of DPBS (PDO set 1 only). […] After 72 h, cell viability was measured using the CellTiter-Glo Luminescent Cell Viability Assay (Promega) diluted 1:5 in the final volume of the well. After 20 min of incubation at room temperature under gentle shaking, the acquisition was performed in the microplate reader VantaSTAR (BMG Labtech) using 3000 gain for the amplification measurement of a detected signal (PDO set 1) or the Spark Multimode microplate reader (TECAN) at 800 ms integration time (PDO set 2).

PDO B250 = test system: PDO B250
Experimental: as §1, §2

PDO B535 = test system: PDO B535
Experimental: as §1, §2

C[C@@H]1COCCN1c1cc(-c2ccnn2C)c2ccnc(-c3ccn[nH]3)c2n1 [Elimusertib]
EC50 (PDO B678): 290 nM | EC50 (PDO B250): 49.3 nM | EC50 (PDO B535): 92.1 nM
